Target: human DGKζ (Homo sapiens (Human), UniProt Q13574)
Assay: biochemical
Conditions: DGKζ LIPGLO IC50

Amino acid sequences for entries named in this document (tags omitted). A change or cut given only in a name is not applied to a line headed by its entry.
UniProt Q13574: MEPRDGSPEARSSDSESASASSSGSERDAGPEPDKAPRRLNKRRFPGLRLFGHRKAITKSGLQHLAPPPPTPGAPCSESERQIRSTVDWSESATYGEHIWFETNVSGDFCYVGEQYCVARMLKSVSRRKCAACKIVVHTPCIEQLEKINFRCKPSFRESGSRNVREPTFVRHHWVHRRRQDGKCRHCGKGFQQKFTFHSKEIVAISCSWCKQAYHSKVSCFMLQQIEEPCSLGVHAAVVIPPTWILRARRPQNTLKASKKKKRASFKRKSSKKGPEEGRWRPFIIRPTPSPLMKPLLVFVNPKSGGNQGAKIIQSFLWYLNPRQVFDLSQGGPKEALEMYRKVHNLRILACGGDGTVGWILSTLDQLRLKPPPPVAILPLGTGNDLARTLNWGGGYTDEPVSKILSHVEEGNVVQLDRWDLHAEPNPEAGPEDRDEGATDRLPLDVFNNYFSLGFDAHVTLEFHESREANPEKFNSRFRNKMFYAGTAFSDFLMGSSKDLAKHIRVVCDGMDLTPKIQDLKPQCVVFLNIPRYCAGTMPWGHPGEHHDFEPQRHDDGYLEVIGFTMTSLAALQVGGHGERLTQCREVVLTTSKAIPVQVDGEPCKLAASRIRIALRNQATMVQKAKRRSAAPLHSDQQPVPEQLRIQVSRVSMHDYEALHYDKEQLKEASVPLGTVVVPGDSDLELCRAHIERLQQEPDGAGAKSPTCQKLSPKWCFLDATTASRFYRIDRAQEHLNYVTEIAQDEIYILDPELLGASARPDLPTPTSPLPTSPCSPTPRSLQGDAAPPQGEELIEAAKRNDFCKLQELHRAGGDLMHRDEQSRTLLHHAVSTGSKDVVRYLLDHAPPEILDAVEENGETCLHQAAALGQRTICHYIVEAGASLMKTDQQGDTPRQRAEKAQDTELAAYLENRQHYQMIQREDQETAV

C[C@@H]1CN(c2cc(=O)n(C)c3ccc(C#N)nc23)CC[C@H]1Oc1c(F)cccc1F [Example 125, 8-((3R,4R)-4-(2,6-difluorophenoxy)-3-methylpiperidin-1-yl)-5-methyl-6-oxo-5,6-dihydro-1,5-naphthyridine-2-carbonitrile]
IC50: 17 µM

— US11964973B2 (priority 2019, dated 2024)
